Results reported in patent US8716480B2, “7-aryl-1,2,4-triazolo[4,3-a]pyridine derivatives and their use as positive allosteric modulators of mGluR2 receptors” (Janssen Pharmaceuticals, Inc., priority 2009, dated 2014).
Marks after values point to notes of the source that are not given here.

Amino acid sequences for entries named in this document (tags omitted). Residues count along the entry.
UniProt Q14416, 19-872 limits assumed: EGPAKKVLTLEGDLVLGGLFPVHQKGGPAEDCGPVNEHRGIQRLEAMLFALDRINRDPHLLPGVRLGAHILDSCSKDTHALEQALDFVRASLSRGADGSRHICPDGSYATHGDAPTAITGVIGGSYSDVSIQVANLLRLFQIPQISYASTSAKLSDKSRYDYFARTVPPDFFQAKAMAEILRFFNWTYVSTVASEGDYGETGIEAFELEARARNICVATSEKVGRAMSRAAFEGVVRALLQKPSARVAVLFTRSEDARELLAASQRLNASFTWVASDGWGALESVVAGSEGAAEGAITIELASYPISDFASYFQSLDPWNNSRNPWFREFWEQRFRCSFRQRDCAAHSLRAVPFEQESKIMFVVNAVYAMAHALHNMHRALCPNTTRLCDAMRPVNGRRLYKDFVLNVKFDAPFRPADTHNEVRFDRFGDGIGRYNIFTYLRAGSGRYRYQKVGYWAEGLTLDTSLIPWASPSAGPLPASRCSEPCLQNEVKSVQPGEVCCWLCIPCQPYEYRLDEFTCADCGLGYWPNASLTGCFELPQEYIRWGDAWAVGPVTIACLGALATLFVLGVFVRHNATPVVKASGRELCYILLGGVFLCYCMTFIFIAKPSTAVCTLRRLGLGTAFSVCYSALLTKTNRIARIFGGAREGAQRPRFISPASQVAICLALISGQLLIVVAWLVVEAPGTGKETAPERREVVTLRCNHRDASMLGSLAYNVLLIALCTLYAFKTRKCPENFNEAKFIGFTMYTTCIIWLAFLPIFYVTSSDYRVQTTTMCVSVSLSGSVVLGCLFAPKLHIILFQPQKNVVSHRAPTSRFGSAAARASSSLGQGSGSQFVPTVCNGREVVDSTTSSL

target: human mGluR2 receptor (Homo sapiens, UniProt Q14416); test: [35S]GTPγS binding assay (PAM); assay type: biochemical; settings: in presence of glutamate at predetermined EC20; membranes from CHO cells transfected with human mGluR2

Row | Compound | GTPγS -hR2 PAM pEC50
1 | Clc1cc(-c2ccn3c(CC4CC4)nnc3c2Cl)ccc1NC1CCOCC1 | 6.82
2 | CCOCc1nnc2c(Cl)c(-c3ccc(Oc4cc(C)nc(C)c4)c(F)c3)ccn12 | 6.11
3 | Clc1c(-c2ccc(N3CCOCC3)cc2)ccn2c(CC3CC3)nnc12 | 5.53
4 | FC1(F)CCN(Cc2ccc(-c3ccn4c(CC5CC5)nnc4c3C(F)(F)F)cc2Cl)C1 | 7.39
5 | Cc1ccc(Oc2ccc(-c3ccn4c(CC5CC5)nnc4c3Cl)cc2Cl)c(C)n1 | 7.91
6 | CCOCc1nnc2c(Cl)c(-c3ccc(Oc4ccnc(C)c4)c(Cl)c3)ccn12 | 6.55
7 | Cc1ccc(Oc2ccc(-c3ccn4c(CC5CC5)nnc4c3C)cc2F)c(C)n1 | 7.11
8 | Fc1cc(-c2ccn3c(CC4CC4)nnc3c2C(F)(F)F)ccc1NC1CC1 | 7.55
9 | COc1ccc(CNc2ccc(-c3ccn4c(CC5CC5)nnc4c3C(F)(F)F)cc2F)cn1 | 8.3
10 | Cc1ccc(Oc2ccc(-c3ccn4c(CC5CC5)nnc4c3C3CC3)cc2F)c(C)n1 | 7.40
11 | Clc1c(-c2ccc(CN3CCOCC3)cc2)ccn2c(CC3CC3)nnc12 | 5.50
12 | Fc1cc(-c2ccn3c(CC4CC4)nnc3c2Cl)ccc1Oc1ccnc(C2CC2)c1 | 7.06
13 | FC(F)(F)c1c(-c2ccc(N3CCOCC3)c(Cl)c2)ccn2c(CC3CC3)nnc12 | 7.15
14 | CCOCc1nnc2c(C(F)(F)F)c(-c3ccc(Oc4ccnc(C)c4)c(Cl)c3)ccn12 | 7.35
15 | FC(F)(F)Cc1nnc2c(Cl)c(-c3ccc(Oc4ccccc4)cc3)ccn12 | 7.34
16 | CCc1cc(Oc2ccc(-c3ccn4c(CC5CC5)nnc4c3C(F)(F)F)cc2F)ccn1 | 7.44
17 | Cc1cc(Oc2ccc(-c3ccn4c(CC5CC5)nnc4c3C(F)(F)F)cc2Cl)ccn1 | 7.83

same assay, conditions: in presence of glutamate at predetermined EC20; membranes from CHO cells transfected with human mGluR2; tested form: HCl

Row | Compound | GTPγS -hR2 PAM pEC50
18 | FC1(F)CCN(Cc2ccc(-c3ccn4c(CC5CC5)nnc4c3C(F)(F)F)cc2)C1 | 6.51

system: male NMRI mice; test: Phencyclidine (PCP)-induced hyperlocomotion in mice; settings: PCP 5 mg/kg s.c., criterion total distance <5500 counts, not marked as oral

Row | Compound | ED50 PCP-Inh. [mg/kg]
19 | Clc1cc(-c2ccn3c(CC4CC4)nnc3c2Cl)ccc1NC1CCOCC1 | 20

system: male Wiga Wistar rats; test: Conditioned avoidance response (CAR) test; settings: compound administered orally, estimated ED50 (n = 3 per dose; 4-fold separation between doses)

Row | Compound | ED50 CAR-Inh. (estimated)
20 | CCOCc1nnc2c(Cl)c(-c3ccc(Oc4ccnc(C)c4)c(Cl)c3)ccn12 | 20*^a) mg/kg
